The values below are quoted from earlier work in patent US20190027771A1, “ACID GAS REGENERABLE BATTERY” (Commonwealth Scientific and Industrial Research Organisation, priority 2015, published 2019).

The conditions of this data set: in a 3M ammonia solution, in the presence of CO2, CO2-loading range relevant to a capture process.

As to `[Cu+2]` [Cu^2+], the Solubility entry is listed as “at least 0.6 M”.
